Experimental data reported in the OPERA property sets (Mansouri et al. 2018).

Conditions: experimental values compiled from the literature

For O=C1C2CC=CCC2C(=O)N1SC(Cl)(Cl)C(Cl)Cl (stereo unspecified), the logP was 3.8.
